scFv variants of Ab-14 (heavy chain) against a SARS-CoV-2 spike peptide

Binding partner: SARS-CoV-2 spike HR2 peptide, sequence PDVDLGDISGINAS.

Parent: Ab-14, a human scFv built as VH, a (GGGGS)3 linker, VL. Only the CDRs of the heavy chain vary.
VH: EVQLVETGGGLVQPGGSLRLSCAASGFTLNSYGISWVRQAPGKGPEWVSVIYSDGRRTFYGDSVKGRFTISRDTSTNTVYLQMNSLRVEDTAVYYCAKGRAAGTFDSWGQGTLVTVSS
VL: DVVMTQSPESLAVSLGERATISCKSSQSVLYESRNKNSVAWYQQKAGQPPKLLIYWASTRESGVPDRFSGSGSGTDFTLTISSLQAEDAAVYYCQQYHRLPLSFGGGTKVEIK

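Phage display of a naive human antibody library on the peptide gave the parent. Variants in AAYL49 differ from the parent at up to three CDR positions; double and triple changes were sampled at random. AlphaSeq pools MATa yeast showing the antibodies with MATalpha yeast showing the peptide. Mating (16 h, 30 °C) was followed by selection of diploids and sequencing of their barcodes. Each replicate has its own calibration line, from reference interactions of the BCL2 family. There are three technical replicates.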

Each variant is given by its three heavy chain CDRs, as the data file delimits them; those of the parent are GFTLNSYGIS, VIYSDGRRTFYGDSVK, GRAAGTFDS.
Scale: log10 of Kd in nM, estimated from mating counts; low values are strong binders.
A mean of the replicates is given; it leaves out those without a signal.
"nd" means that the variant was in the library but no mating with the target was seen in that replicate; the authors take this as a sign of poor binding, and no number exists.
Empty control strains, which show no peptide, gave a signal in 15% of pairings with library AAYL49; the median was 4.06 and 95% of these signals were weaker than 2.83. No background was subtracted. Also given: how often the same scFv was detected with the empty control strains, with their mean in brackets.
In this assay the parent's reference entry averaged 0.65; its copy inside this library read 4.11 (one replicate of three).

CDR-H1 | CDR-H2 | CDR-H3 | log10 Kd (nM) by replicate | mean, log10 nM | signal with controls
GFTLNSYGIS | VIYSDGRETPYGNSVK | GRAAGTFDS | nd nd nd | nd | 1 of 9 (4.57)
GFTLNSYGIH | VIYSDGRRTLYGDSVK | GRAAGTFMS | 3.73 5.02 nd | 4.37 | 5 of 9 (4.08)
GFHLNSYGIS | VIYSDGRRTFYGDSVK | GRAAGTFCF | nd nd nd | nd | 3 of 9 (4.27)
GFTLNSYGIS | VIYSEGRRTEYGDSVK | GRAAGVFDS | 6.31 4.64 nd | 5.48 | 5 of 9 (4.47)
GFTLNSYGIS | VIYSDGRRTFYGDSVK | GMAGGTFDS | 1.89 1.32 1.40 | 1.54 | 0 of 9
GMTLNSYGIS | VIYSDGPRTFYGDSVK | GRAAGTFDK | nd nd nd | nd | 1 of 9 (3.22)
GFTLNSFGIS | VIYSDGARTFYGDSVK | GRAAGTYDS | 2.47 2.38 2.76 | 2.54 | 4 of 9 (4.38)
GKTLNSYGIS | VWYSDGRRTFYGDSVK | GRMAGTFDS | nd nd 4.78 | 4.78 | 1 of 9 (4.51)
GFTLNSYGIE | VIYSDGRHTFYGDHVK | GRAAGTFDS | 2.84 nd nd | 2.84 | 2 of 9 (3.31)
GFTLNANGIS | VIYSDGRRTFYRDSVK | GRAAGTFDS | nd nd nd | nd | 0 of 9
GFTLNNYGIS | VIYSDKRRTFYGDSVK | PRAAGTFDS | nd nd nd | nd | 0 of 9
GDTLNSYIIS | VFYSDGRRTFYGDSVK | GRAAGTFDS | nd nd nd | nd | 1 of 9 (3.71)
NFTLNSYGIS | VIYSCGRRTFVGDSVK | GRAAGTFDS | nd nd nd | nd | 1 of 9 (4.24)
DFTLNSYGIS | VIYSDGRETFYGDSVK | GRAAGTFGS | nd nd nd | nd | 1 of 9 (4.80)
GFTLNEYGIS | MIYSDGRRTFYGDSVK | GRAEGTFDS | nd nd nd | nd | 4 of 9 (3.91)
GFTLNSYGIS | VIYSDGIRTFYGDSVK | GRYAGTFES | 2.88 1.64 1.59 | 2.04 | 1 of 9 (2.88)
GFTLNSYYIS | VAYSDPRRTFYGDSVK | GRAAGTFDS | nd nd nd | nd | 0 of 9
GFTLNSYGIS | VIYSIGRRQFYGDSVK | GRAAGTFDA | nd nd nd | nd | 0 of 9
GFTLNSGGIS | VIYSDPRRRFYGDSVK | GRAAGTFDS | nd nd nd | nd | 0 of 9
GFTLNSYGIT | VIYSDGRRTFYGASVK | GRAAGTFDR | nd nd nd | nd | 0 of 9
GFTLISYGIS | VIYSDGRRTFYGDSVA | GRSAGTFDS | nd 2.58 nd | 2.58 | 1 of 9 (3.05)
GFTLNDYGIS | VIYSDGRRTFYGDSVK | GRAAGTYDN | 2.08 2.28 2.11 | 2.16 | 7 of 9 (4.75)
GFTLNSYGIS | VIYGDGRRTFYGDSVK | GRAAGTFDM | nd nd 2.03 | 2.03 | 0 of 9
GFTLNSYGIS | VIYSDGRRTFYGDSHS | GRAAGTFDS | nd nd nd | nd | 0 of 9
GFTLNSYHIS | VIYSDGRRTFYGDLVV | GRAAGTFDS | 3.53 nd nd | 3.53 | 3 of 9 (4.63)
GFHLYSYGIS | VIYSDGRRTFYGDSVK | GRAAGTFDF | nd nd nd | nd | 0 of 9
GFTLNRYWIS | VIYSDGRCTFYGDSVK | GRAAGTFDS | 5.86 nd nd | 5.86 | 3 of 9 (4.41)
MFTLNSYGIS | VIYSDNRRTFYGDSVK | GRAAGTNDS | nd nd nd | nd | 1 of 9 (4.37)
GFTLNSYGIS | VIYSDGRRTFILDSVR | GRAAGTFDS | 3.50 3.59 4.19 | 3.76 | 0 of 9
GFTLNSYGIM | VIYSFGRRTYYGDSVK | GRAAGTFDS | nd 3.36 nd | 3.36 | 2 of 9 (3.18)
GFNLNSYGIS | YIYSDGRRTFYGDSVK | GRAALTFDS | nd nd nd | nd | 2 of 9 (3.81)
EFTLNSYGIS | VIYSDGRRTHYGDSVK | GEAAGTFDS | 1.17 1.58 2.00 | 1.58 | 1 of 9 (3.53)
GTTLNAYGIS | VIYSWGRRTFYGDSVK | GRAAGTFDS | nd nd nd | nd | 0 of 9
GFTLNSAGIS | VIYSDGRRTFYGDSVK | GFAAGTLDS | nd nd 5.61 | 5.61 | 2 of 9 (3.93)
GFTLNSYGIS | VAYSDGRRTFYGDSVM | GEAAGTFDS | 2.48 2.71 2.78 | 2.66 | 2 of 9 (4.46)
GFTLNSYGIS | MIYSDGRRTFYGDSVK | GRNAGTWDS | nd nd 4.28 | 4.28 | 1 of 9 (4.71)
GFTLNSYGWS | VIYSGGRRTFYGDWVK | GRAAGTFDS | nd 2.42 nd | 2.42 | 1 of 9 (3.88)
GVDLNSYGIH | VIYSDGRRTFYGDSVK | GRAAGTFDS | 0.79 1.03 1.08 | 0.96 | 3 of 9 (4.01)
GGTLNSYGIS | VIYSDGRRTFYGDSTK | GDAAGTFDS | nd nd nd | nd | 0 of 9
GFTLRSYGIS | VIYSMGRRTFYGDSVK | GYAAGTFDS | nd nd nd | nd | 0 of 9
GFTLNSYGIS | VIYSDGRRTFYGDSVE | IKAAGTFDS | nd nd nd | nd | 0 of 9
GFTLNSNGIS | DIYSDGRKTFYGDSVK | GRAAGTFDS | nd 2.67 nd | 2.67 | 1 of 9 (2.79)
GFTLNSYGIS | VIYSDGRDTFYGDSVK | GRGAWTFDS | nd nd nd | nd | 0 of 9
GFTLNSYGYS | VIYSDGRRIFDGDSVK | GRAAGTFDS | nd nd nd | nd | 0 of 9
GFTLNSYGIS | CIYSDGRRTFYGDSVK | GRPPGTFDS | 3.25 3.15 nd | 3.20 | 1 of 9 (3.65)
GFTLNSYCIS | VIYSDGRRTFYGDSVG | GRACGTFDS | nd nd nd | nd | 2 of 9 (3.06)
GFTLNMYGIS | VIYSGGSRTFYGDSVK | GRAAGTFDS | nd nd nd | nd | 1 of 9 (2.01)
GFTGNSYGIS | VIFSDGRRTNYGDSVK | GRAAGTFDS | nd 4.20 nd | 4.20 | 3 of 9 (3.85)
GFTLNSYGIS | VIYCDGPRNFYGDSVK | GRAAGTFDS | 5.28 nd nd | 5.28 | 2 of 9 (4.15)

Extract of 6 entries:

{"CDR-H1": "GFTLNSYGIS", "CDR-H2": "VAYSDGRRTFYGDSVM", "CDR-H3": "GEAAGTFDS", "log10 Kd (nM) by replicate": "2.48 2.71 2.78", "mean, log10 nM": "2.66", "signal with controls": "2 of 9 (4.46)"}
{"CDR-H1": "GFHLYSYGIS", "CDR-H2": "VIYSDGRRTFYGDSVK", "CDR-H3": "GRAAGTFDF", "log10 Kd (nM) by replicate": "nd nd nd", "mean, log10 nM": "nd", "signal with controls": "0 of 9"}
{"CDR-H1": "GFTLNDYGIS", "CDR-H2": "VIYSDGRRTFYGDSVK", "CDR-H3": "GRAAGTYDN", "log10 Kd (nM) by replicate": "2.08 2.28 2.11", "mean, log10 nM": "2.16", "signal with controls": "7 of 9 (4.75)"}
{"CDR-H1": "GFTLNNYGIS", "CDR-H2": "VIYSDKRRTFYGDSVK", "CDR-H3": "PRAAGTFDS", "log10 Kd (nM) by replicate": "nd nd nd", "mean, log10 nM": "nd", "signal with controls": "0 of 9"}
{"CDR-H1": "GTTLNAYGIS", "CDR-H2": "VIYSWGRRTFYGDSVK", "CDR-H3": "GRAAGTFDS", "log10 Kd (nM) by replicate": "nd nd nd", "mean, log10 nM": "nd", "signal with controls": "0 of 9"}
{"CDR-H1": "GFTLNANGIS", "CDR-H2": "VIYSDGRRTFYRDSVK", "CDR-H3": "GRAAGTFDS", "log10 Kd (nM) by replicate": "nd nd nd", "mean, log10 nM": "nd", "signal with controls": "0 of 9"}

Source: Engelhart et al. 2022 (doi:10.1038/s41597-022-01779-4), MIT Lincoln Laboratory and A-Alpha Bio; data file from the FLAb repository.